G9a inh – inhibitors of human histone lysine methyltransferase G9a. G9a H3K9 monomethylation, AlphaScreen, 2 h. Potency, µM (titrated, usually from 102 µM), inactives show at the top dose activity, negative = inhibition, hits mostly inhibitors. hit rate 8.8% among 350,000. AID 504332; also: potency is read from the fitted curve at half-maximal effect; % is scaled to controls: 0 for no effect and ±100 for the full control effect; nearly all actives have a fitted effect of over 75% in size
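AlphaScreen detection with an anti-monomethyl H3K9 antibody quantified product after a 2 h room-temperature reaction containing 500 nM biotinylated H3K9 peptide, 20 µM SAM and 20 nM enzyme, which had been preincubated 15 min with compound.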
ALDH1A1 inh – blocks purified human ALDH1A1 activity; Potency, µM (series often up to 75.3 µM), for the others: at the top dose activity, negative = inhibition, hits mostly inhibitors; Purified ALDH1A1, NADH fluorescence, propionaldehyde substrate; hit rate 7.3% among 220,000; active = well fitted inhibition curve with a large enough effect, not every such curve was filed as active; inconclusive = small, poorly fitted or top-dose-only effect, or another doubt; inactive = no such curve, though single readings can be large or run the other way;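 also: potency is read from the fitted curve at half-maximal effect; plate controls were no enzyme wells and a reference inhibitor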
JMJD2E inh – blocks human JMJD2E demethylase activity; B2RXH2; JMJD2E catalytic domain, FDH-coupled NADH fluorescence (FDH is formaldehyde dehydrogenase); Potency, µM (titrated, usually from 57.1 µM), inactives show at the highest dose activity change, negative = inhibition, actives largely listed as inhibitors; hit rate 1.6% among 230,000; AID 2147; active = well fitted inhibition curve with a large enough effect, not every such curve was filed as active; inconclusive = small, poorly fitted or top-dose-only effect, or another doubt; inactive = no such curve, though single readings can be large or run the other way;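 also: potency is read from the fitted curve at half-maximal effect; 0% = wells with enzyme and -100% = buffer wells without enzyme; nearly all actives have a fitted effect of over 50% in size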
Lamin A splicing – changes lamin A minigene splicing in HeLa cells | hit rate 0.01% among 200,000 | Potency, µM (top dose mostly 46.1 µM), without a hit: at the top dose ratio change, negative = inhibition, usual class: inhibitors | HeLa LMNA splicing GFP/RFP minigene ratio, 48 h; active = well fitted inhibition curve with a large enough effect in the signal ratio, with a control signal flat, not every such curve was filed as active; inconclusive = small, poorly fitted or top-dose-only effect, or effect the other way, or a change in a side signal; the % refers to the signal ratio; also: potency is read from the fitted curve at half-maximal effect; % is scaled to controls: 0 for no effect and ±100 for the full control effect
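S3 HeLa stable clones carrying a lamin A-EGFP splicing minigene plus DsRed2 were seeded at 600 cells/well in Opti-MEM with 2% FBS, pin-dosed and incubated 48 h at 37°C. Acumen cytometry (488 nm) gave the GFP/RFP total-intensity ratio.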
miR-21 reporter – raises the signal of a miR-21 reporter; AID 2288; 340,000 tested, under 10 active; Potency, µM (doses to about 38.3 µM), inactives show at the top dose reporter change, positive = more light; HeLa miR-21 FLuc reporter, luciferase, 48 h; active = well fitted rising curve with a large enough effect; inconclusive = small, poorly fitted or top-dose-only effect; inactive = no such curve, though single readings can be large or run the other way;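 note: % of control where 0% means no effect; miR-21 action dims this reporter so a rising signal means less miR-21 action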
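HeLa miR-21-FLuc reporter line, endogenous miR-21; 2000 cells/well in DMEM/10% FBS; compound titration up to ~40uM final, 48 h, 37 degree Celsius; luciferase detection reagent, 15 min lysis, CCD luminescence.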
Sfp inh – Sfp phosphopantetheinyl transferase inhibition | Q9F4F7 | Biochemical Sfp PPTase activity, qHTS | Potency, µM, inactives show max response, negative = inhibition, usual class: inhibitors | actives 3.5% (n = 310,000) | AID 1490; active = well fitted inhibition curve with a large enough effect; inconclusive = small, poorly fitted or top-dose-only effect, or another doubt; inactive = no such curve, though single readings can be large or run the other way;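 also: the enzyme is Sfp with the accession as filed and its product quenches rhodamine fluorescence; potency is read from the fitted curve at half-maximal effect; 0% = enzyme reaction without inhibitor and -100% = no enzyme wells; top concentration of the series not given in the record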
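Sfp 15 nM + cpd, 15 min RT; start w/ rhodamine-CoA 5 uM, BHQ-2-YbbR 12.5 uM (final); 50 mM Hepes pH 7.6, 10 mM MgCl2, 0.01% NP-40, 0.01% BSA; read 525/598 nm at 0 and 30 min.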
Active calls of the source: *; [ ] = remark or other dose. Most compounds without a hit are left out; they make up all but 13% or so of the library. Unless noted, calls follow the shape of the dose curve; as a rule, active = well fitted curve in the direction sought with a large enough effect; inconclusive = small, poorly fitted or top-dose-only effect, or another doubt; inactive = no such curve, though single readings can be large; an effect the other way counts as inactive or inconclusive.

CCN1C(=O)[C@H]2[C@@H](c3ccc(-c4cccc(Cl)c4)cc3)N3CCCC[C@@]3(C(=O)OC)[C@H]2C1=O was read as G9a inh -20%[2.33 µM].
`CC(=O)N1c2ccc(S(=O)(=O)N3CCC(C(=O)N4CCN(c5ccccc5F)CC4)CC3)cc2CC1C` (stereo not given) gave miR-21 reporter 19% and Sfp inh 7%.
`O=C(NCCCN1CCOCC1)C(c1ccccc1)c1ccccc1` gave miR-21 reporter 3% and Sfp inh 6%.
Screening O=C(C(Cl)c1ccccc1)N1CCOCC1 (stereo not given) returned G9a inh 22µM*, miR-21 reporter 20% and Sfp inh 6%.
Screening O=C(C(Sc1ccccc1)c1ccc(Br)cc1)N1CCOCC1 (stereo not given) returned G9a inh 11%[59 µM], ALDH1A1 inh 10%, JMJD2E inh 2%, Lamin A splicing -3%, miR-21 reporter 1% and Sfp inh 6%.
CC(CN1CCOCC1)C(=O)c1ccccc1 (stereo not given) was read as G9a inh -46%, ALDH1A1 inh 32µM*, JMJD2E inh -3%, Lamin A splicing inconclusive, miR-21 reporter 1% and Sfp inh -9%.
For O=C(OCCN1CCOCC1)C(c1ccccc1)c1ccccc1 the results were G9a inh 1%, ALDH1A1 inh 25µM*, JMJD2E inh 4%, Lamin A splicing 1%, miR-21 reporter -1% and Sfp inh -18%.
For CO[C@@H]1COC(=O)C/C=C\[C@H](C)[C@H](OC)COC(=O)[C@H](C)NC(=O)C/C=C\[C@H]1C the results were ALDH1A1 inh -2%[13.5 µM] and Sfp inh 13%.
`O=C(N/N=C/c1cn(Cc2ccccc2)c2ccccc12)c1ccncc1` gave G9a inh inconclusive, ALDH1A1 inh 14µM*, JMJD2E inh -5%, Lamin A splicing 28%[46 µM], miR-21 reporter 5% and Sfp inh -6%.
For O=C(N/N=C/c1cn(Cc2ccccc2)c2ccccc12)c1cccnc1 the results were G9a inh 6%[59 µM], ALDH1A1 inh 14µM*, JMJD2E inh -18%, Lamin A splicing inconclusive, miR-21 reporter 5% and Sfp inh -20%.
Screening CCN(CC)S(=O)(=O)c1nnc(NC(=O)COc2ccc(Cl)cc2)s1 returned G9a inh -44%[59 µM], Lamin A splicing -15%[46 µM] and miR-21 reporter -72%.
`C#C[C@]1(O)CC[C@@H]2[C@H]3CCC4=CCCC[C@@H]4[C@@H]3CC[C@@]21C` gave G9a inh 20%[21.5 µM], ALDH1A1 inh inconclusive, JMJD2E inh -5%[25.5 µM], Lamin A splicing inconclusive and Sfp inh 13%.
For O=C(O)c1cnn(-c2ccccc2)c1-c1ccncc1 the results were G9a inh 50µM*, miR-21 reporter 1% and Sfp inh -6%.
`O=Cc1cccn1-c1c(C(=O)O)cnn1-c1ccccc1` gave G9a inh -50%, ALDH1A1 inh -1%, JMJD2E inh 2%, Lamin A splicing 0%[9.22 µM], miR-21 reporter 6% and Sfp inh 7%.
`O=C(NCC(c1cccnc1)N1CCc2ccccc2C1)C(=O)Nc1ccc(Cl)cc1` (stereo not given) gave G9a inh -32%[59 µM], Lamin A splicing 26%[46 µM] and miR-21 reporter -41%.
For Cc1nn(CCC(=O)NCc2ccc(N(C)C)cc2)c(=O)c2nn(-c3ccccc3)c(C)c12 the results were G9a inh 45µM*, miR-21 reporter -1% and Sfp inh 13%.
Cc1cccc(N2C(=O)CC(N3CCOCC3)C2=O)c1 (stereo not given) was read as G9a inh -18%[59 µM], ALDH1A1 inh inconclusive, JMJD2E inh 3%, Lamin A splicing -3%, miR-21 reporter -5% and Sfp inh 11%.

Gathered by group: the compounds so far with sulfur.
`CC(=O)N1c2ccc(S(=O)(=O)N3CCC(C(=O)N4CCN(c5ccccc5F)CC4)CC3)cc2CC1C` (stereo not given) gave miR-21 reporter 19% and Sfp inh 7%.
Screening O=C(C(Sc1ccccc1)c1ccc(Br)cc1)N1CCOCC1 (stereo not given) returned G9a inh 11%[59 µM], ALDH1A1 inh 10%, JMJD2E inh 2%, Lamin A splicing -3%, miR-21 reporter 1% and Sfp inh 6%.
Screening CCN(CC)S(=O)(=O)c1nnc(NC(=O)COc2ccc(Cl)cc2)s1 returned G9a inh -44%[59 µM], Lamin A splicing -15%[46 µM] and miR-21 reporter -72%.

Assay outcomes: PubChem BioAssay, National Center for Advancing Translational Sciences (NCATS)
